# Measured values taken from patent publication US20080008771A1, “Nitric Oxide Dioxygenase Inhibitors” (priority 2004, published 2008).
# By UniProt entry, the sequences of proteins in these tests, tags left out. Where a name states a change or a piece, a line headed by the entry shows the natural chain unless it says otherwise.
# UniProt P39662: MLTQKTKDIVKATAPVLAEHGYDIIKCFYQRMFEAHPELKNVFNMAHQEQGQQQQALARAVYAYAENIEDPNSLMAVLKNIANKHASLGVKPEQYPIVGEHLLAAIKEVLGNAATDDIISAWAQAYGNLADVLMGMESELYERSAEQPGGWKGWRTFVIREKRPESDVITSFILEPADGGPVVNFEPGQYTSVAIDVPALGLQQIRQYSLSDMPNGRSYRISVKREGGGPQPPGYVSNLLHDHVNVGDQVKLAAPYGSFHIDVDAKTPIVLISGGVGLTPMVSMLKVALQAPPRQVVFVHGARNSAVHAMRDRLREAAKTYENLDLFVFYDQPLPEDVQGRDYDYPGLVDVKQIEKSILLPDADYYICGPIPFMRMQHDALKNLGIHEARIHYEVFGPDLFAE
# Biological target: A. eutrophus flavohemoglobin (Cupriavidus necator, UniProt P39662)
smiles,measurement,value
Clc1ccc(COC(Cn2ccnc2)c2ccc(Cl)cc2Cl)cc1 (centres unmarked) [econazole],"Fraction inhibited as percentage of total activity, first (major) phase",(˜70%)
same,"Fraction inhibited as percentage of total activity, second (minor) phase",(˜30%)
